# Laboratory results reported in patent publication US7932261B2, “Macrocycle derivatives useful as inhibitors of β-secretase (BACE)” (Janssen Pharmaceutica NV, priority 2006, dated 2011).
# The chains behind the UniProt entries cited, without tags or fusion partners. Residues count along the entry.
# UniProt P56817, 46-501: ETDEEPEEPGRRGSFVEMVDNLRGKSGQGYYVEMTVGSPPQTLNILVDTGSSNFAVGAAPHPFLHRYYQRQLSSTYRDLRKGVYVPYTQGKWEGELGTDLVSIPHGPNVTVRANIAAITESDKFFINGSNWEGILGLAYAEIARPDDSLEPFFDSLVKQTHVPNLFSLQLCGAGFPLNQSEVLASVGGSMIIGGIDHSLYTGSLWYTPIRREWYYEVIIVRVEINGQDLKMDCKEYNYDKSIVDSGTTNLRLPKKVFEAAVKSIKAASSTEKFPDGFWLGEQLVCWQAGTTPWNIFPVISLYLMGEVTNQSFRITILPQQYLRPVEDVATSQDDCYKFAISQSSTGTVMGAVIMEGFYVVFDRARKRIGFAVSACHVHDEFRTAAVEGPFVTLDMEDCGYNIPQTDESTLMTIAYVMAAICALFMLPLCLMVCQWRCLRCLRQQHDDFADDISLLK
# How the values were obtained:
# Format in all cases: biochemical
# [1] = target: T1, β-secretase (BACE) (Homo sapiens, UniProt P56817); assay: in vitro BACE Assay, Ki (Example 14); conditions: FS1 substrate 50 μM, Km 24 μM, pH 5; for Ki: (Example 14) Ki (μM); for pKi: read-out: (Example 14) Ki
# T1 construct: purchased Panvera
# [2] = target: human BACE-1 (Homo sapiens, UniProt P56817); assay: in vitro BACE Assay run by CEREP (Example 15)
# [3] = target: T1, β-secretase (BACE); assay: in vitro BACE FS1 % Inhibition Assay (Example 13); conditions: FS1 substrate, pH 5
# [4] = pH 5, read-out: % Inhibition (Example 13) @ 0.3 μM, 0.3 μM compound
# [5] = pH 5, read-out: % Inhibition (Example 13) @ 1 μM, 1 μM compound
# [6] = pH 5, read-out: % Inhibition (Example 13) @ 3 μM, 3 μM compound
Ki [1],pIC50 [2],"inhibition at 0.3 µM [3, 4] [%]","inhibition at 1 µM [3, 5] [%]","inhibition at 3 µM [3, 6] [%]",pKi [1],"inhibition at 0.3 µM ([3]; 0.3 μM compound, read-out: % Inhibition (Example 13) @ 0.3 μM) [%]","inhibition at 1 µM ([3]; 1 μM compound, read-out: % Inhibition (Example 13) @ 1 μM) [%]","inhibition at 3 µM ([3]; 3 μM compound, read-out: % Inhibition (Example 13) @ 3 μM) [%]",SMILES
0.039 µM and 0.018 µM and 0.0057 µM,7.20,,,,,,,,NC1=Nc2ccc3cc2CN1[C@H](C1CCCCC1)CCC(=O)N(C1CCCCC1)CCc1cccc(c1)O3 [Compound 2]
,,117,138,139,7.77,,,,NC1=Nc2ccc3cc2CN1[C@H](C1CCCCC1)CCC(=O)N(C1CCOCC1)CCc1cccc(c1)O3 [Compound 14]
0.19 µM,,65,121,122,,,,,NC1=Nc2ccc3cc2CN1[C@@H](C1CCCCC1)CCC(=O)N(C1CCCCC1)CCCc1cccc(c1)O3 [Compound 6]
,,,,,7.29 and 7.51,74,105,117,NC1=Nc2ccc3cc2CN1CCC(=O)N(C1CCCCC1)CCCc1cccc(c1)O3 [Compound 1]

# pIC50, pKi: −log10 of the molar value. Several values for one entry are separate records, joined by “and”; a condition that tells them apart may be missing. Identical values can stand only once. Like-named read-outs stand apart in the source and are kept apart here.
